Earlier results, collected in US10137085B2, “Nanoemulsion for transdermal delivery and method of making the same” (Nano and Advanced Materials Institute Limited, priority 2014, dated 2018).

Conditions: solid-in-oil nanodispersion compared to control

insulin
skin penetration: could be enhanced
